{"source": "patent US20230399374A1", "about": "“Compounds, Compositions and Methods of Use to Treat Bone Fractures” (PURDUE RESEARCH FOUNDATION, priority 2020, published 2023)", "test_system": "midshaft femur fractures", "experiment": "Biodistribution of radio-iodinated peptide payloads (CK2.3 and others) coupled to acidic oligopeptides", "settings": "24 hours post-injection, 10 days post-fracture, FIG. 4", "data": [{"sequence": "HSDGIFTDSYSRYRKQMAVKKYLAAVLGKRYKQRVKNKC [PACAP]", "values": [{"measurement": "fracture targetability of payloads coupled to (L)Asp10 (in words)", "value": "differed somewhat from the other anabolic peptides in fracture targetability"}]}]}
